Earlier results on one compound are cited in patent publication US20060287342A1, “Triazolopyrimidine heterocycles as cannabinoid receptor modulators” (priority 2005, published 2006).

For this data set the following is noted: chronic administration for two weeks.

For `Cc1c(C(=O)NN2CCCCC2)nn(-c2ccc(Cl)cc2Cl)c1-c1ccc(I)cc1` [AM-251], the adipose tissue mass entry is listed as “decreased adipose tissue mass”.
